# AlphaSeq binding of Ab-14 heavy chain variants to a spike HR2 peptide

The target is the same throughout: PDVDLGDISGINAS, from the HR2 region of SARS-CoV-2 spike.

Each scFv is VH, a (GGGGS)3 linker, VL, as in the parent Ab-14, and differs from it in the CDRs of the heavy chain only.
VH: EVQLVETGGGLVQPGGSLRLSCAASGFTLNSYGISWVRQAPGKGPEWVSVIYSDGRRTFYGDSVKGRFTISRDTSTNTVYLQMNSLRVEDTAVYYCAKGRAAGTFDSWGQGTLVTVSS
VL: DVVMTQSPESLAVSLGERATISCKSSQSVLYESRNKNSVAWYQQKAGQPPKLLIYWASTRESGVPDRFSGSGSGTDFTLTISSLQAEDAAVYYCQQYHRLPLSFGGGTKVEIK

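The starting antibody came from a phage panning campaign against this peptide. This is the validation round: designs drawn from the data on random variants, tested in the same kind of assay. Group labels follow the data file (Ctrl: baseline library sampled from a position-specific scoring matrix, with some repeated check sequences; Rand: our label for a block that the file lists under HC and that is probably the random mutants of the ten best first-round binders; En: ensemble of fine-tuned language models; GP: Gaussian process model; GPLM: also part of the Gaussian process libraries; HC: hill climbing; Gen: genetic algorithm; Gibbs: Gibbs sampling; a sequence that several methods proposed may carry one label only). The assay is AlphaSeq: two haploid yeast populations carry antibody and antigen on their surface. Pairs that bind mate more often; barcode pairs of the diploids are counted by sequencing. Each replicate has its own calibration line, from reference interactions of the BCL2 family. The assay was run in six technical replicates.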

The parent's heavy chain CDRs are GFTLNSYGIS, VIYSDGRRTFYGDSVK, GRAAGTFDS; each variant's own CDRs replace them letter for letter.
Scale: log10 of Kd in nM, estimated from mating counts; low values are strong binders.
A mean of the replicates is given; it leaves out those without a signal.
Where no diploid with the target was found in any replicate, the entry reads "not detected": below detection, most likely a poor binder, though not proof of it.

| CDR-H1 | CDR-H2 | CDR-H3 | group | mean log10 Kd (nM) | replicates with signal |
|---|---|---|---|---|---|
| GFDNNSYGIS | VIYSDGRRTFYSDSVK | GRARGTFDL | Ctrl | 2.43 | 1/6 |
| GFTINSYGIS | VIYSDGRRTFYGDSVR | NEAAGTFVS | Ctrl | not detected | 0/6 |
| GFWLNEYGIS | VIYSDGRRTFYHDSVK | GRAAGTFDA | GP_HC | 0.79 | 6/6 |
| GFSLNSYGIS | VIYSDGRRTFYGDSVK | GQLAGTFDS | GPLM_Gen | 0.36 | 6/6 |
| GFELNSYGIS | VIYSDGRRTMYIDSVK | GRTAGTFDS | GP_Gibbs | 1.01 | 6/6 |
| GFTLNDYGIS | VIYADGRRTFYGDSVK | GTAAGTFDS | GP_HC | not detected | 0/6 |
| GFTMNDYGIS | VIYSDGRREFYTDSVK | GRAAGTFFS | Ctrl | not detected | 0/6 |
| GYTLESYGIS | VIYADGRRTFYGDSVK | GRAAGTFDS | GPLM_Gen | 0.95 | 6/6 |
| GFELNEYGIS | VIYSDGRRTFYGDSVK | GQAAGTFDV | GP_Gen | 0.32 | 6/6 |
| GFDLDEYGIS | VIYADGQRTAYADSVK | GNTAGTFDT | En_Gen | -0.51 | 6/6 |
| GFELNSYGIS | VIYSDGRRTFYHDSVK | GKAAGTFDS | GP_Gen | 1.02 | 6/6 |
| GFSLNSYGIS | VIYSDGRRTFYADSVK | GHAAGTFDS | GPLM_Gen | 1.05 | 3/6 |
| GFTLNSYGIS | VIYSDGRRTFYGDSVK | GRARGTFDW | Ctrl | not detected | 0/6 |
| GFTLNEYGIS | VIYSDGRRTFYSDSVK | GMAGGTFDS | GP_HC | 0.52 | 4/6 |
| GFDLDEYGIS | VIYADGRRTAYADSVK | GSNAGTFDI | En_Gen | 0.10 | 6/6 |
| GFTLESYGIS | VIYADGRRTFYGDSVK | GQAAGTFDA | GP_Gen | 0.64 | 6/6 |
| GFDLNEYGIS | VIYADGRRTAYSDSVK | GEVAGTFDQ | En_Gen | -0.50 | 6/6 |
| GFDLNEYGIS | VIYADGHRTFYSDSVK | GQTAGTFDA | En_HC | -0.47 | 6/6 |
| GFTLNSYGIS | VIYSDGFRTFYGDDVK | GKAAGTFDS | Ctrl | 2.06 | 1/6 |
| GFDLNEYGIS | VIYADGKRTAYADSVK | GNIAGTFDV | En_Gen | 0.41 | 6/6 |
| GFDLNEYGIS | VIYADGRRTFYLDSVK | GEAAGTFDQ | En_HC | -0.28 | 6/6 |
| GFTLESYGIS | VIYADGRRTFYGDSVK | GRAAGTFDT | GP_Gen | 0.48 | 6/6 |
| GFDLNEYGIS | VIYADGRRTFYADSVK | GQLAGTFDS | En_HC | -0.83 | 6/6 |
| GFDLEEYGIS | VIYADGMRTAYSDSVK | GNNAGTFDV | En_Gen | -0.07 | 6/6 |
| GFDLNSYGIS | VIYSDGRRTFYGDSEK | GRAIGWFNS | Rand | not detected | 0/6 |
| GFSLDEYGIS | VIYADGVRKSYMNSVK | GNIKGTLFA | En_Gibbs | not detected | 0/6 |
| GFTLNDYGHS | VIYSDGRRTQYIDSVK | GRAAGTFDS | Rand | not detected | 0/6 |
| GFTLNEYGIS | VIYSDGCRTIYGDSVK | GRAAGTFDS | Ctrl | 3.35 | 2/6 |
| GFDINEMGIS | VIYADGQRLFYAQEVK | GENTGSFDM | En_Gibbs | not detected | 0/6 |
| GFELNSYGIS | VIYSDGRRTFYGDSVK | GQTAGTFDA | GP_Gen | 0.23 | 5/6 |
| GFDLDEYGIS | VIYADGQRTYYADSVK | GNQAGTFDV | En_Gen | -0.08 | 5/6 |
| GFDLNEYGIS | VIYADGRRTFYTDSVK | GTNGGTFDV | En_HC | -0.52 | 6/6 |
| GFQIDEYGIS | VIYADGRRASYAADVK | GSYDSDGLT | En_Gibbs | 4.47 | 1/6 |
| GFDLNSYGIS | VIYSDGRRTFYSDSVK | GRVAGTFDS | GPLM_Gibbs | -0.85 | 6/6 |
| GFTLNNYGIS | VIYADGRRTFYGDSVK | GRAAGTFDS | Ctrl+GPLM_Gen | -0.09 | 12/12 |
| GFDLNEYGIS | VIYADGRRTFYSDSVK | GNLAGTFDV | En_HC | not detected | 0/6 |
| GFNLNEYGIS | VIYADGMRTFYTDSVK | GEVAGTFDV | En_HC | 0.01 | 6/6 |
| GFNLNEYGIS | VIYSDGRRTFYTDSVK | GRAAGTFDE | GP_HC | 1.04 | 5/6 |
| GFTLNDYGIS | VIYSDGRRTFYGDSVK | GVASGTFDS | Ctrl | 2.22 | 2/6 |
| GFDLNEYGIS | VIYADGRRTFYSDSVK | GQTAGTFDT | En_HC | -0.41 | 6/6 |

Second part, the sequence after the result:

| mean log10 Kd (nM) | replicates with signal | CDR-H1 | CDR-H2 | CDR-H3 | group |
|---|---|---|---|---|---|
| -0.03 | 6/6 | GFSLNTYGIS | VIYSDGRRTFYADSVK | GKAAGTFDS | GPLM_Gen |
| -0.55 | 6/6 | GFDLDEYGIS | VIYADGMRTAYADDVK | GENAGTFDT | En_Gen |
| -0.33 | 6/6 | GFDLNEYGIS | VIYADGMRTAYADDVK | GANAGTFDI | En_Gen |
| 0.61 | 6/6 | GFDLNSYGIS | VIYSDGRRTFYIDQVK | GNAAGTFDS | GP_Gen |
| 0.46 | 6/6 | GFDLEDYGIS | VIYADGRRTVYADSVK | GEAAGTFDL | En_HC |
| 1.34 | 4/6 | GFTLNSYGIS | VIYSDGRRTFYSDSVK | GEAGGTFDF | GP_HC |
| 0.64 | 6/6 | GFDLNEYGIS | VIYADGRRTFYTDSVK | GEGAGTFDQ | En_HC |
| 0.67 | 12/12 | GFTLNSYGIS | VIYSDGRRTAYSDSVK | GRAAGTFDS | Ctrl+GPLM_HC |
| not detected | 0/6 | GYTLNQYGIS | VIYSDGRRTFYGDSVK | GRNAGTFDV | Ctrl |
| not detected | 0/6 | GFEIDEYGIS | VIYADGIRSSYNDNVK | GQTGGAFDL | En_Gibbs |
| not detected | 0/6 | GFDLNEYGIS | VIYADGRRTFYADSVK | GEIAGTFDK | En_HC |
| not detected | 0/6 | GFDLKEYGIS | VIYADGVREQYAHSVK | GTYSGKFGM | En_Gibbs |
| -0.78 | 6/6 | GFDLNEYGIS | VIYADGRRSFYADSVK | GTLAGTFDV | En_HC |
| 1.10 | 2/6 | GFHLNSYGIS | VIYSDGRRTFYKDSVK | GKTAGTFDS | GP_Gibbs |
| not detected | 0/6 | GFTLNDYGIS | VIYSDGRRTFYIDSVK | GREAGTFIS | GP_HC |
| 2.91 | 2/6 | GADLNEYGIS | VIYADGQRTVYADTVK | GHHGGIFDM | En_Gibbs |
| -0.50 | 6/6 | GFSLNEYGIS | VIYSDGKRTFYGDSVK | GRNAGTFDS | GPLM_Gen |
| not detected | 0/6 | GFHLNSYGIS | VIYSDGRRTFYADSVK | GAAAGTFDS | GPLM_Gen |
| -0.16 | 6/6 | GFDLDEYGIS | VIYADGQRTAYADSVK | GNTAGTFDV | En_Gen |
| 0.69 | 6/6 | GFQLNEYGIS | VIYSDGRRTMYGDSVK | GRAAGTFDS | GP_Gen |
| not detected | 0/6 | GFDLNSYGIS | VIYSDGRRTFYGDGVK | GRAAGHFNS | GP_HC |
| 1.08 | 6/6 | GFTLNSYGIS | VIYSDGKRTFYGDSVK | GEAAGTFDT | GPLM_Gibbs |
| 0.99 | 3/6 | GFTLNSYGIS | VIYSDGKRTFYGDSVK | GWVAGTFDL | GP_Gibbs |
| not detected | 0/6 | GFTLNSYSIS | VIYSDGRRVAYYDSVK | GRAAGTFDQ | Ctrl |
| 1.31 | 6/6 | GMTLNSYGIS | VIYADGRRTFYGDSVK | GRAAGTNDS | GP_HC |
| 1.30 | 1/6 | GFTLNSYGIS | VIYSDGRRTFYSDAVK | GEAAGTFDT | GPLM_Gen |
| -0.61 | 6/6 | GFSLNEYGIS | VIYSDGRRTFYSDSVK | GQAAGTFDS | GPLM_Gen |
| not detected | 0/6 | GFTLNDYGIS | VIYSDGRRTFYDDSVK | GRAALTFIS | Rand |
| -0.69 | 6/6 | GFDLNEYGIS | VIYADGKRTFYADSVK | GNTAGTFDI | En_Gen |
| 1.20 | 5/6 | GFTLNSYGIS | VIYSDGKRTFYADSVK | GKAAGTFDS | GPLM_Gibbs |
| -0.73 | 6/6 | GFDLDEYGIS | VIYADGVRTAYIDSVK | GNVAGTFDV | En_Gen |
| 0.85 | 6/6 | GFSLNSYGIS | VIYSDGRRTFYGDSVK | GQVAGTFDI | GP_Gibbs |
| -0.26 | 6/6 | GFDLNEYGIS | VIYADGMRTFYSDSVK | GNVAGTFDI | En_Gen |
| -0.04 | 6/6 | GFSLNDYGIS | VIYSDGRRTFYGDSVK | GKTAGTFDS | GPLM_Gen |
| -0.01 | 6/6 | GFQLDEYGIS | VIYADGRRTFYSDSVK | GEVAGTFDV | En_HC |
| 2.11 | 4/6 | GFQLNSYGIS | VIYSDGRRTFYIDSVK | GKAAGTFDQ | GP_Gibbs |
| 1.30 | 5/6 | GFTLNSYGIS | VIYSDGRRTFYIDSVK | GHAAGTFDT | GPLM_Gibbs |
| not detected | 0/6 | GFTLNDYGIS | VIYSDGRRTFYGDNVK | GGAACTFDS | Ctrl |
| 2.93 | 1/6 | TFRLNSYGIS | VIYSDGRRTFYNDSVK | GREAGTFRS | Ctrl |
| 1.20 | 5/6 | GDILEEYGIS | VIYADGMRTYYEDSVK | GNVNGVFFI | En_Gibbs |

In the paper, a design with two or fewer of six values counts as a poor binder.
A sequence measured in both rounds can read differently, since the two assays cover different ranges.
Three control strains display no target. For all heavy chain designs, 1% of the pairings with them gave a signal, with a median of 2.08 and one signal in twenty below 0.84, so weak values seen in few replicates may be background.
Where one sequence has several entries in the source, the replicates are pooled.

Values reported by Li et al. 2023, doi:10.1038/s41467-023-39022-2 (FLAb copy).